# According to ChEMBL document CHEMBL1145379 (J Med Chem, 2007):
# Species: Bos taurus
structure (smiles),measurement,value
CN1CCN(Cc2csc(C(=O)Nc3ccc(Cl)cc3C(=O)Nc3ccc(Cl)cc3)c2Cl)CC1,Ki/Km,> 5 µM
